From ChEMBL document CHEMBL1138646, “Carbonic anhydrase inhibitors: inhibition of the membrane-bound human isozyme IV with anions” (Bioorg Med Chem Lett, 2004)

Protein sequences, listed by entry. Tags and fused reporters are not part of them. Residues count along the entry.
UniProt P22748, 19-284 limits assumed: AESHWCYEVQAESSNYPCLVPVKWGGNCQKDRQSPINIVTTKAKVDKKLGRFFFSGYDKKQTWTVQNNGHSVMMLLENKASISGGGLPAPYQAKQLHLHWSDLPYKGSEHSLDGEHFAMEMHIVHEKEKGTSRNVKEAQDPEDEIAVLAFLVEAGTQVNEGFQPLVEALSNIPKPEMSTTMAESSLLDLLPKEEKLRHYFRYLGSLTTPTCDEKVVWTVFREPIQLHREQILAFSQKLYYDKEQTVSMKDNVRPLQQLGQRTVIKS

Molecular target: Carbonic anhydrase 4 (Homo sapiens, UniProt P22748)
Test: Inhibition constant against human carbonic anhydrase isozyme hCA IV

Structure (SMILES): O=[As](O)(O)c1ccccc1
- Ki: 870 nM
